The values that follow come from US20250283871A1, “COMPOSITIONS AND METHODS FOR MODULATING THE INTERACTION BETWEEN SS18-SSX FUSION ONCOPROTEIN AND NUCLEOSOMES” (Dana-Farber Cancer Institute, Inc., priority 2020, published 2025).

Assay [1] addresses H2A(12to17)K13ac1 histone form in mammalian mononucleosomes from HEK-293T cells (mammalian (HEK-293T cells)) (UniProt P0C0S8). Description: MBP-SSX1 78aa pull-down of HEK293T mononucleosomes, targeted histone MS, sample MM05_E01.
Assay [2] addresses H2AZ(1to19)K4ac1 histone form in mammalian mononucleosomes from HEK-293T cells (mammalian (HEK-293T cells)) (UniProt P0C0S5). The assay is described as above.
In assay [3] the target is H2AZ(1to19)ac0 histone form in mammalian mononucleosomes from HEK-293T cells (mammalian (HEK-293T cells)) (UniProt P0C0S5). Described as above.
For assay [4], the target named is H2B(1to29)ac0 histone form in mammalian mononucleosomes from HEK-293T cells (mammalian (HEK-293T cells)) (UniProt P62807). Described as above.
For assay [5], the target named is H3K4ac1 histone form in mammalian mononucleosomes from HEK-293T cells (mammalian (HEK-293T cells)) (UniProt P68431). The assay is described as above.
Assay [6] addresses H3K4me2 histone form in mammalian mononucleosomes from HEK-293T cells (mammalian (HEK-293T cells)) (UniProt P68431). The description is as above.
The target of assay [7] is H3K4me3 histone form in mammalian mononucleosomes from HEK-293T cells (mammalian (HEK-293T cells)) (UniProt P68431). The description is as above.
The target of assay [8] is H4(20to23)K20me0 histone form in mammalian mononucleosomes from HEK-293T cells (mammalian (HEK-293T cells)) (UniProt P62805). The description is as above.
Assay [9] deals with H4(20to23)K20me1 histone form in mammalian mononucleosomes from HEK-293T cells (mammalian (HEK-293T cells)) (UniProt P62805). The assay is described as above.
Assay [10] has as its target H4(20to23)K20me2 histone form in mammalian mononucleosomes from HEK-293T cells (mammalian (HEK-293T cells)) (UniProt P62805). Described as above.
Assay [11] has as its target H4(4to17)K5ac1K8ac1K12ac1K16ac1me0 histone form in mammalian mononucleosomes from HEK-293T cells (mammalian (HEK-293T cells)) (UniProt P62805). Described as above.
Assay [12] has as its target HEK-293T mononucleosomes with histone H3K4me2 (mammalian (HEK-293T cells)) (UniProt P68431). In words: MBP-SSX1 78aa pull-down of HEK293T mononucleosomes, targeted quantitative histone MS, replicate 2.
The target in assay [13] is HEK-293T mononucleosomes with histone H3K9me1S10ph1K14ac1 (mammalian (HEK-293T cells)) (UniProt P68431). The description is as above.
In assay [14] the target is HEK-293T mononucleosomes with histone H4(20to23)K20me1 (mammalian (HEK-293T cells)) (UniProt P62805). The description is as above.
The target in assay [15] is HEK-293T mononucleosomes with histone H4(4to17)K5ac1K16ac1me0 (mammalian (HEK-293T cells)) (UniProt P62805). The description is as above.
The target in assay [16] is HEK-293T mononucleosomes with histone H4(4to17)K5ac1me0 (mammalian (HEK-293T cells)) (UniProt P62805). Described as above.
In assay [17] the target is HEK-293T mononucleosomes with histone H4(4to17)ac0me0 (mammalian (HEK-293T cells)) (UniProt P62805). The description is as above.
The target of assay [18] is mammalian mononucleosomes (HEK293T, MNase) carrying histone H3 K56me0 (mammalian (HEK293T cells)) (UniProt P68431). Description: MBP-SSX1 78aa pull-down of HEK293T mononucleosomes, targeted quantitative histone MS; replicate 2 (MM05_E01).
For assay [19], the target named is mammalian mononucleosomes (HEK293T, MNase) carrying histone H3 K79me1 (mammalian (HEK293T cells)) (UniProt P68431). Described as above.
In assay [20] the target is mammalian mononucleosomes (HEK293T, MNase) carrying histone H3 K79me2 (mammalian (HEK293T cells)) (UniProt P68431). Described as above.
For assay [21], the target named is mammalian mononucleosomes (HEK293T, MNase digestion) read out by the histone H3 peptide H3K56me0 (human) (UniProt P68431). In words: MBP-SSX1 78aa pull-down of HEK293T mononucleosomes, targeted quantitative histone mass spectrometry; replicate MM04_D01.
Assay [22] addresses mammalian mononucleosomes (HEK293T, MNase digestion) read out by the histone H3 peptide H3K79me1 (human) (UniProt P68431). Described as above.
For assay [23], the target named is mammalian mononucleosomes (HEK293T, MNase digestion) read out by the histone H3 peptide H3K79me2 (human) (UniProt P68431). The assay is described as above.

For “MBP-SSX1 (78aa) (from UniProt P0AEX9 27-392)”, the log2 normalized (Light/Heavy) intensity ratio was -0.047 log2 in assay [1]; 0.048 log2 in [2]; -0.697 log2 in assay [3]; 0.16 log2 in assay [4]; 0.32 log2 in assay [5]; 0.532 log2 in [6]. Also, the log2 normalized (Light/Heavy) intensity ratio is 0.505 log2 in assay [7]; 0.092 log2 in assay [8]; -0.443 log2 in assay [9]; -0.391 log2 in assay [10]; 0.245 log2 in assay [11]. The log2 (Light/Heavy) ratio normalized to average of pull down input controls was -0.348 log2 in assay [12]; 0.451 log2 in [13]; 0.195 log2 in assay [14]; -0.272 log2 in [15]; -0.162 log2 in assay [16]; 0.243 log2 in [17]. For the same substance, the log2 normalized (Light/Heavy) intensity ratio of the histone peptide in [18] is 0.297 log2; in assay [19], 0.54 log2; in assay [20], 0.557 log2. Moreover, the log2 histone peptide abundance (light/heavy) in the pull-down, normalised to the average of the pull-down input controls amounted to 0.742 log2 ratio in assay [21], 0.617 log2 ratio in assay [22] and 0.352 log2 ratio in assay [23].
